Source: article PMC6294515, “Structural basis of the specific interaction of SMRT corepressor with histone deacetylase 4” (Nucleic Acids Research, 2018)

Legend:
HDAC5c = assay: Interaction with HDAC5c (yeast two-hybrid, GST pull-down, BiFC); conditions: yeast two-hybrid (β-galactosidase), in vitro GST pull-down, BiFC in HEK293 cells; result in words
HDAC4c = assay: Interaction with HDAC4c (yeast two-hybrid, GST pull-down, BiFC); conditions: yeast two-hybrid (β-galactosidase), BiFC in HEK293 cells, result in words
class IIa HDACs = test system: class IIa HDACs; parameters: method as in PMID 10640275; conditions: cited from earlier work
class I enzymes = test system: class I enzymes; parameters: method as in PMID 10640275; conditions: cited from earlier work
HDAC4c H842L = conditions: HDAC4c mutant versus wild-type; cited from earlier work
Text: (§1) Among the seven HDACs whose catalytic domain structures have been reported, HDAC4c is unique in that it has an open conformation when it binds to non-peptide molecules. In agreement with this, mutations at the ^+1GSI^+3 residues of two motifs and R+9 residue of the SM1 lead to a loss of its binding activity to HDAC4c/-5c (Figures 1 and 5). The class IIa HDAC-specific residues (D759, H842, and F871), which are located at the cleft to and entrance to the catalytic zinc-binding site, interact directly or indirectly with these residues of bound peptides (Figure 3D and E). Further, HDAC4c mutants o ...

HDAC4c F871S = conditions: HDAC4c mutant versus wild-type; cited from earlier work
Text: as §1

HDAC4c F871L = conditions: HDAC4c mutant versus wild-type; cited from earlier work
Text: as §1

HDAC4c D759Y = conditions: HDAC4c mutant versus wild-type; cited from earlier work
Text: as §1, with “Next, we analyzed the mutational effects of SM1 mutants by OPTHiS screening (Figure 5A). […] In the peptide-complex structures, G+1, S+2 and T+4 residues on both peptides interact, directly or through water molecules, with residues on the cleft wall of the structural zinc-binding subdomain (Figure 3E). Mutations in this peptide region (G+1R, S+2D and T+4N/T+4A) altered the binding affin ... || Among” for “Among”

[1] = target: T1, human HDAC4c (R651-T1055) H976Y mutant (human, UniProt P56524 651-1055, H976Y); assay: ITC; 25 injections of peptide (2.25 mM) into HDAC4c H976Y (0.113 mM); 20°C; 20 mM Tris-HCl pH 7.5, 200 mM NaCl, 0.1% NP-40, 0.5 mM TCEP; independent binding sites model; conditions: both partners purified
T1 construct: histone deacetylase 4 (HDAC4), human, catalytic domain R651-T1055; also called HDAC4c H976Y; source: E. coli BL21 Star (DE3), purified (HisTrap, TEV digestion, HiTrap Q)
T1 sequence (looked up): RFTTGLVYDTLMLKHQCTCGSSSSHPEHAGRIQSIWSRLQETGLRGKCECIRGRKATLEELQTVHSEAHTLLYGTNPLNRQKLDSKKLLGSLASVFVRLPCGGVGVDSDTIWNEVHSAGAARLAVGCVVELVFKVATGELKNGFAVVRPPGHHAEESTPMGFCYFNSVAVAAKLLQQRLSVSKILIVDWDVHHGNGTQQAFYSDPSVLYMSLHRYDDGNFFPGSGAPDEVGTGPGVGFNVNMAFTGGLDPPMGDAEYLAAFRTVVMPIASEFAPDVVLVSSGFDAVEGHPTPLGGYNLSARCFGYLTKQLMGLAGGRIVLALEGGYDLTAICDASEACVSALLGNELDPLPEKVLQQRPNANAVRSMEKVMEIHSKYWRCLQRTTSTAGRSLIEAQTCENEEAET

For “SM1F: 40-amino acid fragment containing SM1 in the middle (E1346-L1385)”, the “binding to HDAC5c” value (HDAC5c) was “better binding activity of SM1F than SM2F to all HDACs” and the “binding to HDAC4c” value (HDAC4c) was “better binding activity of SM1F than SM2F to all HDACs”.

B1: SRD3c: C-terminal region of SMRT repression domain 3 (K1316-S1515 of human SMRT) (protein, UniProt Q9Y618 1316-1515, looked up, fragment)
chain: GRVGRAISSASIEGLMGRAIPPERHSPHHLKEQHHIRGSITQGIPRSYVEAQEDYLRREAKLLKREGTPPPPPPSRDLTEAYKTQALGPLKLKPAHEGLVATVKEAGRSIHEIPREELRHTPELPLAPRPLKEGSITQGTPLKYDTGASTTGSKKHDVRSLIGSPGRTFPPVHPLDVMADARALERACYEESLKSRPGTA
For B1, the “interaction with class IIa HDACs” value (class IIa HDACs) is given as “specifically interacts with class IIa HDACs”, the “interaction with class I HDACs” value (class I enzymes) is given as “not with class I enzymes” and the “binding affinity to HDAC4c H842L” value (HDAC4c H842L) is given as “decreased binding affinities”. The “binding affinity to HDAC4c F871S” value (HDAC4c F871S) was “decreased binding affinities”, the “binding affinity to HDAC4c F871L” value (HDAC4c F871L) was “decreased binding affinities” and the “binding affinity to HDAC4c D759Y” value (HDAC4c D759Y) was “decreased binding affinities”.

B2: SP1 (peptide)
peptide: HIRGSITQGIPRSYV
notes: human SMRT peptide around motif SM1, printed as -3 to +12 (+1 = G1361); also called SMRT peptide SP1; source: synthetic peptide (Anygen)
In the case of B2, the Kd [1] is reported as 2.23 µM, the dH [1] is reported as -11.2 kcal/mol and the “stoichiometry N” value [1] is reported as 0.82.

B3: SP2 (peptide)
peptide: KEGSITQGTPLKY
notes: human SMRT peptide around motif SM2, printed as -2 to +11 (+1 = G1457); also called SMRT peptide SP2; source: synthetic peptide (Anygen)
For B3, the Kd [1] was 18.8 µM, the dH [1] was -7.01 kcal/mol and the “stoichiometry N” value [1] was 0.977.
